Compound activity: PubChem BioAssay, National Center for Advancing Translational Sciences (NCATS)
Rows were chosen to be rich in hits. Some 3.7% of all compounds tested hit in one or more screens of this group.
ClpP mod – qHTS Assay for Activators of ClpP; Potency, µM (highest dose often 57.5 µM), for inactives: top-dose activity change, negative = active; ATP-dependent Clp protease proteolytic subunit (Bacillus subtilis (strain 168)), P80244; purified B. subtilis ClpP, FRET peptide cleavage, 20 min; 1.9% of 340,000 active; active = well fitted falling curve with a large enough effect; inconclusive = small, poorly fitted or top-dose-only effect; inactive = no such curve, though single readings can be large or run the other way; note: potency is the fitted concentration of half-maximal effect; the source files actives as falling curves though it sought activators and does not explain the sign; nearly all actives have a fitted effect of over 65% in size
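ClpP 10 microg/mL final, pH 8 Tris/KCl buffer with BSA, glycerol, Tween-20; compound pinned in; FRET-FV substrate; RT 20 min; Ex320/Em430; ΔFRET vs ADEP 5.8 microM, DMSO, no enzyme.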
TCR activator – T cell receptor activation; AID 504894; Potency, µM (doses to about 9.22 µM), for the others: at the top dose activation of IL-2 secretion, most hits filed as activators; 330,000 tested, under 10 active; primary human leukocytes, anti-CD3, IL-2 HTRF, 48 h; note: % of control where 0% means no effect
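HTRF read-out of IL-2 secretion: europium cryptate donor excited at 320nm, d2 acceptor emission at 665nm. Cells were primary human leukocytes incubated 48 hr with compounds and a-CD3 beads, supplying TCR signal only.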
Nrf2 ARE act – Nrf2 pathway activation | AID 624171 | 0.31% of 410,000 active | Potency, µM (series often up to 46.1 µM), without a hit: top-dose activation, hits mostly activators | AREc32 ARE-luciferase reporter (MCF7-derived line), luminescence, 24 h; note: potency is the fitted concentration of half-maximal effect; % of control where 0% means no effect; nearly all actives have a fitted effect of over 65% in size
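Nrf2 activation is followed as ARE-luciferase induction in the AREc32 line after one day of compound treatment; luminescence is read with Steady-Glo.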
A549 viability – A549 cytotoxicity, counter-screen for Nrf2 inhibitors | A549 ARE-Fluc cells, CellTiter-Fluor viability, 18-24 h | Potency, µM (series often up to 46 µM), inactives show top-dose activity change, negative = cytotoxicity, hits mostly inhibitors | 0.16% of 390,000 active; note: potency is the fitted concentration of half-maximal effect; % is set by controls: 0 for no effect and ±100 for the full control effect
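A549 ARE-Fluc cells in 5% FBS OPTI-MEM, 5000 cells/well, rested 2 h then exposed to compounds in concentration-response for 18-24 h at 37 °C. Viability by CellTiter-Fluor fluorescence (Ex 405/Em 525) after 30 min; luciferase luminescence (BugLite, 15 min, RT) read afterwards.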
Nrf2 block – blocks Nrf2 signaling. A549 ARE-Fluc reporter, luciferase luminescence, 18-24 h. Potency, µM (top dose mostly 46 µM), for inactives: top-dose activity change, negative = inhibition, usual class: inhibitors. AID 504444. 2.1% of 360,000 active; note: potency is the fitted concentration of half-maximal effect; % is set by controls: 0 for no effect and ±100 for the full control effect; nearly all actives have a fitted effect of over 60% in size
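In this cell-based qHTS, ARE-driven firefly luciferase in A549 cells reports Nrf2 activity; the luminescent signal after BugLite lysis is the measured value, with a prior CellTiter-Fluor read for cell health.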
miR-21 reporter – raises the signal of a miR-21 reporter; Potency, µM (doses to about 38.3 µM), inactives show top-dose reporter change, positive = more light; HeLa miR-21 FLuc reporter, luciferase, 48 h; AID 2288; 340,000 tested, under 10 active; active = well fitted rising curve with a large enough effect; inconclusive = small, poorly fitted or top-dose-only effect; inactive = no such curve, though single readings can be large or run the other way;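 further: % of control where 0% means no effect; miR-21 action dims this reporter so a rising signal means less miR-21 action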
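HeLa cells stably expressing CMV-driven firefly luciferase with a downstream miR-21 binding sequence, endogenously expressing miR-21, were treated with titrations (up to about 40uM final) for 48 hours at 37 degree Celsius. Luciferase luminescence was read after lysis.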
* hit, by the source's call; [ ] = remark or other dose. Unless noted, calls come from the whole dose curve; as a rule, active = well fitted curve in the direction sought with a large enough effect; inconclusive = small, poorly fitted or top-dose-only effect, or another doubt; inactive = no such curve, though single readings can be large; an effect the other way counts as inactive or inconclusive.

`COc1ccccc1C(=O)NC(=S)Nc1ccc(N2CCN(C(=O)c3ccco3)CC2)cc1` gave ClpP mod 1%, TCR activator -2%, Nrf2 ARE act -1%, A549 viability -17%, Nrf2 block 21µM* and miR-21 reporter -5%.
O=C(Nc1ccc(N2CCN(C(=O)c3ccco3)CC2)cc1)c1ccc(Br)cc1 was read as ClpP mod 1%, TCR activator 4%, Nrf2 ARE act 0%, A549 viability -11%, Nrf2 block 16µM* and miR-21 reporter -4%.
O=C(Nc1ccc(N2CCN(C(=O)c3ccco3)CC2)cc1)c1cc(Br)ccc1Cl was read as ClpP mod 2%, TCR activator -4%, Nrf2 ARE act 0%, A549 viability -15% and Nrf2 block 23µM*.
Cc1ccccc1C(=O)N1CCN(c2ccc(NC(=S)NC(=O)c3ccco3)cc2)CC1 was read as ClpP mod -2%, TCR activator -2%, Nrf2 ARE act 2%, A549 viability 10%, Nrf2 block inconclusive and miR-21 reporter 28%.
Screening O=C1c2cccc(-c3ccc(C(F)(F)F)cc3)c2C2CC=CCN12 (configuration not stated) returned ClpP mod 1% and Nrf2 ARE act 1%.
Cc1cccc(C)c1-n1nnnc1C1(C)CCC(=O)N1CCc1ccc(O)cc1 (configuration not stated) was read as ClpP mod 1% and Nrf2 ARE act -2%.
For COCCCn1c(SCc2cccc(Cl)c2)nc2c(sc3ccccc32)c1=O the results were ClpP mod -9%, Nrf2 ARE act -1%, A549 viability inconclusive and miR-21 reporter 3%.
For CC(NC(=O)C1CCCN1C(=O)c1cccs1)c1ccc(Cl)cc1Cl (configuration not stated) the results were ClpP mod 1% and Nrf2 ARE act -1%.
CC(Sc1nc(N)cc(=O)[nH]1)C(=O)Nc1sc2c(c1C#N)CCCC2 (configuration not stated) was read as TCR activator -1%, Nrf2 ARE act 3%, A549 viability -30%, Nrf2 block 13µM* and miR-21 reporter 9%.
For COC(=O)CCC(=O)Nc1sc2c(c1C#N)CCCC2 the results were ClpP mod 28µM*, TCR activator 3%, Nrf2 ARE act 5%, A549 viability -4%, Nrf2 block -16% and miR-21 reporter 1%.

The list goes on, starting with the last three of the part before.
For CC(NC(=O)C1CCCN1C(=O)c1cccs1)c1ccc(Cl)cc1Cl (configuration not stated) the results were ClpP mod 1% and Nrf2 ARE act -1%.
CC(Sc1nc(N)cc(=O)[nH]1)C(=O)Nc1sc2c(c1C#N)CCCC2 (configuration not stated) was read as TCR activator -1%, Nrf2 ARE act 3%, A549 viability -30%, Nrf2 block 13µM* and miR-21 reporter 9%.
For COC(=O)CCC(=O)Nc1sc2c(c1C#N)CCCC2 the results were ClpP mod 28µM*, TCR activator 3%, Nrf2 ARE act 5%, A549 viability -4%, Nrf2 block -16% and miR-21 reporter 1%.
`N#Cc1c(NC(=O)CSc2nc(N)cc(=O)[nH]2)sc2c1CCCCCC2` gave ClpP mod 0%, TCR activator -2%, Nrf2 ARE act 0%, A549 viability -5%, Nrf2 block 7.3µM* and miR-21 reporter 7%.
For COC(=O)c1ccc2c(c1)C(C)(C)C(/C=C/c1ccc(OC)c(OC)c1OC)=[N+]2C the results were ClpP mod inconclusive, TCR activator 2%, Nrf2 ARE act -3%, A549 viability inconclusive, Nrf2 block 16µM* and miR-21 reporter inconclusive.
Screening CC1CCN(C(=O)COC(=O)C23CC4CC(CC(O)(C4)C2)C3)CC1 returned ClpP mod 1%, TCR activator -8%, Nrf2 ARE act -1%, A549 viability -1% and Nrf2 block inconclusive.
Screening COc1ccc(/C=C2\SC(N3CCCCC3)=NC2=O)cc1OC returned TCR activator -4%, Nrf2 ARE act 12%, A549 viability 2%, Nrf2 block 9% and miR-21 reporter -26%.
Screening COc1cc(/C=C2\SC(N3CCC(C)CC3)=NC2=O)ccc1O returned ClpP mod 14µM*, TCR activator 6%, Nrf2 ARE act 12%, A549 viability -7%, Nrf2 block -14% and miR-21 reporter -1%.
`CCOc1ccc(S(=O)(=O)NCCc2sc3nc(-c4ccc(F)cc4)nn3c2C)cc1` gave ClpP mod 0%, Nrf2 ARE act 0%, A549 viability -15% and miR-21 reporter 25%.
For COc1ccc(S(=O)(=O)N2C[C@@H](O)COC[C@@H]3O[C@H](CC(=O)NCCCN4CCOCC4)CC[C@H]32)cc1 the results were ClpP mod -2%.
Screening CC(C(=O)Nc1ccccc1)c1ccc(-c2ccccc2)c(F)c1 (configuration not stated) returned ClpP mod 1%, TCR activator 0%, Nrf2 ARE act 0%, A549 viability -30%, Nrf2 block 10µM* and miR-21 reporter 18%.
Screening CCOC(=O)CNc1c(-c2ccc(O)cc2)nc2ccccn12 returned ClpP mod 32µM*, TCR activator 3%, Nrf2 ARE act 4%, A549 viability -2%, Nrf2 block -9% and miR-21 reporter -16%.
CCOC(=O)CNc1c(-c2ccc(O)cc2)nc2ccc(Cl)cn12 was read as ClpP mod -13%, TCR activator 0%, Nrf2 ARE act 8%, A549 viability -6%, Nrf2 block 2% and miR-21 reporter -30%.
For Cc1cc(C)cc(OCCCn2c(CCNC(=O)C3CCCCC3)nc3ccccc32)c1 the results were ClpP mod 2%, Nrf2 ARE act -1%, A549 viability inconclusive, Nrf2 block inconclusive and miR-21 reporter 13%.
`N=C1S/C(=C\c2ccc(-c3cccc(Cl)c3)o2)C(=O)N1c1nccs1` gave ClpP mod 1%, TCR activator -2%[46.1 µM], Nrf2 ARE act 9%, A549 viability inconclusive, Nrf2 block 8.2µM* and miR-21 reporter -1%.
`CSc1ccc(Cl)c(C(=O)NCCOc2ccccc2)c1` gave ClpP mod -3%, TCR activator 17%, Nrf2 ARE act 3%, A549 viability 18%, Nrf2 block inconclusive and miR-21 reporter -48%.
`CCc1ccc(OCCNC(=O)c2cc(SC)ccc2Cl)cc1` gave ClpP mod -4%, TCR activator -38%, Nrf2 ARE act 0%, A549 viability inconclusive, Nrf2 block 18µM* and miR-21 reporter -3%.
Screening CCc1ccccc1OCC(=O)Nc1ccc(S(=O)(=O)Nc2nc(C)cc(C)n2)cc1 returned ClpP mod -2%, Nrf2 ARE act 0%, A549 viability 0%, Nrf2 block -16% and miR-21 reporter -22%.
Cc1cccc(NS(=O)(=O)c2ccc3c(c2)CCN3C(=O)CCC(=O)O)c1 was read as ClpP mod 1%, TCR activator 3%, Nrf2 ARE act 0%, A549 viability 5%, Nrf2 block 1% and miR-21 reporter 0%.
